From publication PMC7948503, “Optimization of a peptide ligand for the adhesion GPCR ADGRG2 provides a potent tool to explore receptor biology” (The Journal of Biological Chemistry, 2020)

Target: T1, ADGRG2-ΔGPS-β (Mus musculus, UniProt Q8CJ12)
T1 construct: the entire ECD (including the entire GPS motif) was removed (ADGRG2-ΔGPS-β); expressed in transfected cells; host or cells: HEK293
Assay: GloSensor cAMP assay, HEK293 transfected with ADGRG2-ΔGPS-β
Type: cell-based
Text: Wildtype ADGRG2 full-length (ADGRG2-FL) was cloned from mouse total cDNA libraries using the following primers: forward, […]; reverse, […], and then ADGRG2-FL, ADGRG2 C-terminal truncation mutant (ADGRG2-β), and ADGRG2-ΔGPS-β (the entire ECD of ADGRG2 was deleted) were subcloned into the pcDNA3.1 expression vector. The ADGRG2-ΔGPS-β mutants (T610A, Y611A, C614A, S661A, W662A, I663A, L665A, Y666A，N667A, F671A, L679A, L683A, I730A, V731A, F741A, F747A, W757A, I758A, N759A, S760A, V762A, F764A, Y765A, V768A, V769A, F772A, V774A, W824A, F826A, F828A, F829A, V834A, V836A, F838A, M839A, I844A, F845A) were generated using a QuikChange Mutagenesis Kit (Stratagene). All mutations were verified by DNA sequencing.
Human embryonic kidney 293 (HEK293) cells were maintained in Dulbecco’s modified Eagle’s medium supplemented with 10% fetal bovine serum, penicillin (100 IU/ml), and streptomycin (100 μg/ml) as described ([6], [38]). For receptor or other protein expression, plasmids carrying the desired genes were transfected into cells using Lipofectamine 2000 (Invitrogen).
The Glosensor cAMP assay was performed as described ([6], [39], [40]). HEK293 cells were transfected with the GloSensor plasmid and the desired expression plasmids in 24-well dishes. […] The cAMP signal was examined using a luminescence counter (Mithras LB 940).

In the case of “F3Tyr(Me): p15 mutant, Phe at +3 substituted by unnatural amino acid Tyr(Me) (TS; Tyr(Me) in place of F at position 3)”, the “cAMP accumulation / signal transduction activity compared with wildtype p15” value (100 μM peptide, HEK293 ADGRG2-ΔGPS-β, Glosensor, repeated 12 times) is reported as “higher signal transduction activities” and the “EC50 compared with wildtype p15 or other mutants” value (concentration-response curves, cAMP Glosensor, ADGRG2-ΔGPS-β) is reported as “lower EC50 value than wildtype p15”.
